# Values of other authors in US20260382653A1, “METHOD AND COMPOSITIONS FOR TREATING BURN WOUNDS” (published 2026).
# Tested on: burn wound patients
structure (smiles),measurement,setting,value
Nc1ccc(S(=O)(=O)Nc2ncccn2)cc1.[Ag],cytotoxicity,depending on the amount applied,has been shown to be cytotoxic
same,allergic reaction,some burn wound patients,may cause an allergic reaction
